According to PubChem BioAssay AID1242 (PCMD, 2008):
This is a selection; strong and weak results do not stand in their true shares. The source made the active and inactive calls.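 How the source made its calls: active means inhibition above 30.3% in the primary screen of four-compound pools, then above 30% when the compound was retested; inconclusive means passed the primary limit but could not be retested; inactive means the rest.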

Assay: Candida albicans biofilm persister killing – 4-compound mixtures, primary screen (AID 1242);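 further: compounds exposed to preformed 24 h biofilms for 48 h; 0% = untreated biofilm control and 100% = clotrimazole plus chlorhexidine kill blank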
Settings: C. albicans biofilm persisters + clotrimazole, fluorescence viability; primary screen in compound mixtures of four per well; at 7.6 µM; hits give high values
Summary of the method: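 Incubation: 24 h biofilm formation, then 48 h compound exposure, 37 °C | Material: C. albicans biofilms | Buffer or medium: RPMI/MOPS medium, pH 7.0 | Measured by: 2-h Alamar Blue fluorescence, 535/590 nm excitation/emission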

Row | SMILES | inhibition
1 | CCCOc1ccc(NP(C)(=O)Oc2ccc(Cl)cc2)cc1 (stereo unspecified) | inactive: -1.7%
